# Apparent affinities of Ab-14 variants for a coronavirus HR2 peptide

All variants were tested on one target, the spike HR2 peptide PDVDLGDISGINAS (SARS-CoV-2).

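Phage display of a naive human antibody library on the peptide gave the parent. The library (AAYL50) carries one to three amino acid substitutions per variant, with no insertions or deletions. In AlphaSeq, yeast of one mating type display the scFv and yeast of the other type display the target. After mating in shaken culture at 30 °C for 16 h, diploids were selected and their barcode pairs sequenced. Scores were corrected for input abundance and mapped to Kd with protein pairs of known affinity run in the same pool. Mating was done three times.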

Parent scFv Ab-14: VH joined to VL by a 15-residue (Gly4Ser)3 linker. Changes lie in the light chain CDRs alone.
VH: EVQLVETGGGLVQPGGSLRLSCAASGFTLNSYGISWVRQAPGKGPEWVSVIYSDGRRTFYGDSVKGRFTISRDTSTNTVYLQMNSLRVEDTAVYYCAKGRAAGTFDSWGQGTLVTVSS
VL: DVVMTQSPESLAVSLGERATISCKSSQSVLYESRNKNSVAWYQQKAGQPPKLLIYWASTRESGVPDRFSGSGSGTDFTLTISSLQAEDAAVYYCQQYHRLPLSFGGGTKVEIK

Positions count from residue 1 of the parent VL; V29E puts E in place of V. Numbers give log10(Kd / nM), so 0 is 1 nM and 3 is 1 µM. Smaller is tighter. "n.d." marks a missing value. The strain was present, yet no cells mated with the target were sequenced in that replicate, which points to weak or no binding. For reference, the parent read 0.65 as the reference entry and 1.68 as a member of this library. Empty control strains, which show no peptide, gave a signal in 18% of pairings with library AAYL50; the median was 4.19 and 95% of these signals were weaker than 2.99. No background was subtracted. Also given: how often the same scFv was detected with the empty control strains, with their mean in brackets.

changes,"replicates, log10 nM",signal with controls
V29E/E61Q/H98S,0.35 0.43 0.42,9/9 (4.41)
S25Y/S28I/V39D,4.26 3.11 n.d.,0/9
V29T/H98E,1.56 1.72 1.78,1/9 (2.51)
S33L/A40Y,n.d. n.d. n.d.,0/9
S26W/V29Q/A57W,1.71 1.63 2.03,2/9 (4.30)
R34T/P101Q,1.10 1.11 1.63,0/9
K24N/R34F/Q95C,5.14 4.88 3.78,3/9 (4.49)
K24G/N37P/S38I,n.d. n.d. n.d.,0/9
S28A/L30Q/S33D,0.94 1.23 1.20,5/9 (5.53)
A57T/T59P/Y97C,n.d. n.d. n.d.,2/9 (3.52)
S28L/A57R/R99D,n.d. n.d. n.d.,0/9
K36G/A40P/Q95K,2.91 3.84 n.d.,4/9 (4.23)
R34W/W56H,0.99 0.98 1.36,0/9
K24S/L30C/S38D,2.87 2.74 2.58,1/9 (3.86)
K24L/Q95W/R99L,n.d. n.d. n.d.,0/9
K24I/T59S/R99W,n.d. n.d. n.d.,1/9 (4.36)
S58H/T59P/L100G,4.54 5.01 3.89,2/9 (3.07)
Q95E/P101N/L102H,0.60 0.91 0.61,1/9 (3.84)
L30R/E32Q/L100Y,n.d. n.d. 6.25,2/9 (4.53)
Q27F/N37S/A57L,4.56 4.66 6.62,9/9 (4.51)
Q27R/P101M/L102A,2.35 2.28 2.34,4/9 (3.91)
Y97G,2.70 2.25 2.49,8/9 (4.25)
T59F/Q95K/P101K,2.96 2.79 2.57,1/9 (5.33)
K36N/N37M/T59R,1.40 1.50 1.63,3/9 (4.20)
N37E/L100G/L102R,4.46 4.02 5.57,5/9 (4.55)
A57P/T59E/R60T,n.d. n.d. n.d.,0/9
K24A/S58H/L102E,4.58 3.56 n.d.,2/9 (4.73)
S26L/S33E/H98P,n.d. n.d. n.d.,0/9
V39Y/W56M/P101I,5.24 n.d. 4.29,7/9 (4.80)
K24Q/V29M,0.96 1.07 1.28,0/9
S26Q/K36S/A40P,n.d. n.d. n.d.,0/9
L30I/E32G/S62C,1.36 1.50 1.51,1/9 (4.07)
K36P/R60G/S62G,n.d. n.d. 4.77,5/9 (4.58)
S25P/V29E/W56L,1.10 1.01 1.13,0/9
V39K/R60M/S62C,n.d. n.d. n.d.,1/9 (3.68)
Y31Q/N37V/S38N,2.06 2.38 2.35,4/9 (4.63)
V29I/E32C/P101G,n.d. n.d. n.d.,1/9 (2.23)
E32P/S38P/R60I,n.d. n.d. 3.17,0/9
S33R/S58E/Y97K,2.81 3.87 3.33,5/9 (4.39)
K36P/S58W/E61C,3.07 2.33 3.09,1/9 (3.42)
V29D/A57N/T59F,1.89 1.85 3.17,1/9 (4.67)
S28A/A57D/Q96H,1.69 1.87 1.85,4/9 (4.26)

A selection of 6 entries from above:

changes,"replicates, log10 nM",signal with controls
K24Q/V29M,0.96 1.07 1.28,0/9
S25Y/S28I/V39D,4.26 3.11 n.d.,0/9
S26Q/K36S/A40P,n.d. n.d. n.d.,0/9
V29I/E32C/P101G,n.d. n.d. n.d.,1/9 (2.23)
V39K/R60M/S62C,n.d. n.d. n.d.,1/9 (3.68)
S26W/V29Q/A57W,1.71 1.63 2.03,2/9 (4.30)

Reference: Engelhart et al. 2022, doi:10.1038/s41597-022-01779-4. File: FLAb, binding data.